Protein sequences, listed by entry. Tags and fused reporters are not part of them.
UniProt Q00960, whole entry: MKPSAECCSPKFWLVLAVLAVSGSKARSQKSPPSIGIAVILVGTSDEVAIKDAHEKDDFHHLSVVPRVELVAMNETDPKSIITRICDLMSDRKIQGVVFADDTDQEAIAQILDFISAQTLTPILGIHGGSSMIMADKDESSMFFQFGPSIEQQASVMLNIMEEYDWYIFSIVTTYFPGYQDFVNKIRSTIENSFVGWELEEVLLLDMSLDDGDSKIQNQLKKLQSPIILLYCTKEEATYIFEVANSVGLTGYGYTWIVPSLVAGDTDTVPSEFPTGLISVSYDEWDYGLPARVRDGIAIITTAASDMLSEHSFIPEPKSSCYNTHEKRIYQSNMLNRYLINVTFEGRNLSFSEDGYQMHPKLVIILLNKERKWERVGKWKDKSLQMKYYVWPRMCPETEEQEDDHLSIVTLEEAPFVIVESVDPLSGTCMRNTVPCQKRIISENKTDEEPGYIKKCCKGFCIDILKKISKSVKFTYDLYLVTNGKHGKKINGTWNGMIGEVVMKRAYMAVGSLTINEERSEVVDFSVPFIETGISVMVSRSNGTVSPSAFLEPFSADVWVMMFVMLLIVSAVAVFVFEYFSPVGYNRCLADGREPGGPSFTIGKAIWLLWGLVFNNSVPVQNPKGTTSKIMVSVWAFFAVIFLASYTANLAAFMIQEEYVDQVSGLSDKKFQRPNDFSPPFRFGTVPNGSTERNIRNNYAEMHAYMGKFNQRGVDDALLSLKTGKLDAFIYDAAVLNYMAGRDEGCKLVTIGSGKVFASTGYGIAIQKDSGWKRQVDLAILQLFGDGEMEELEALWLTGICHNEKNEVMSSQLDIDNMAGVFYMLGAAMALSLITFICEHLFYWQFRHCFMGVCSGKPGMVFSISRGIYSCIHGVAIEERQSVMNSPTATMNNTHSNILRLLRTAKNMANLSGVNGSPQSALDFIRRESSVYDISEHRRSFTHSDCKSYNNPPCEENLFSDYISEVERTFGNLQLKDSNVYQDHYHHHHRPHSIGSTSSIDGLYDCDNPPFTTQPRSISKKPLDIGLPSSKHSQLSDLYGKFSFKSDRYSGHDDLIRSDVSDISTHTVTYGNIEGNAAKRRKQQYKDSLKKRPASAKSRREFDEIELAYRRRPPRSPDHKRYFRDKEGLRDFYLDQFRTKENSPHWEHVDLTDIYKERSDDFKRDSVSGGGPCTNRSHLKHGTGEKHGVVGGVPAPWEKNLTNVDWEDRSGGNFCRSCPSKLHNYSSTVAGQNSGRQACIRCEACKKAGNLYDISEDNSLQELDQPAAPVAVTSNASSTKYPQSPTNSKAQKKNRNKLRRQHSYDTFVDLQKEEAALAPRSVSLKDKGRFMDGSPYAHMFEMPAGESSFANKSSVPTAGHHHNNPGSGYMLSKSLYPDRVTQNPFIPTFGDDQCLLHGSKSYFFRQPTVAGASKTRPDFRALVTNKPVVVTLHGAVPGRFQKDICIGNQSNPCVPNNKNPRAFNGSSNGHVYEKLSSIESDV

According to ChEMBL document CHEMBL4145597, “BMS-986163, a Negative Allosteric Modulator of GluN2B with Potential Utility in Major Depressive Disorder” (ACS Med Chem Lett, 2018):

Target: Glutamate receptor ionotropic, NMDA 2B (Rattus norvegicus, UniProt Q00960)
Test: Displacement of [3H]Ro 25-6981 from GluN2B receptor in Sprague-Dawley rat forebrain membranes incubated for 1 hr by topcount micro scintillation counting method
Design: species or system Membrane

| SMILES | Ki [nM] |
| --- | --- |
| Cc1ccc(CN2CC[C@@H](N3CC[C@H](c4ccc(O)cc4)[C@@H](F)C3)C2=O)cc1 | 4.3 |
| Cc1ccc(CN2CC[C@@H](N3CCC(c4ccc(O)cc4)C(F)(F)C3)C2=O)cc1 (some centres not stated) | 7.7 |
